# Values quoted from earlier work, collected in patent publication US10500256B2, “Polymers for delivery of therapeutic proteins” (BOARD OF REGENTS, THE UNIVERSITY OF TEXAS SYSTEM, priority 2014, dated 2019).
# Details: in vivo; cited from earlier work
substance,measurement,value
1-deamino-8-D-arginine-vasopressin,Absorption,1%
